{
  "source": "ChEMBL document CHEMBL5608209",
  "about": "“Biological and structural investigation of tetrahydro-β-carboline-based selective HDAC6 inhibitors with improved stability” (Eur J Med Chem, 2024)",
  "note": "Calls of active or inactive are those of the source. The rule behind the calls is not given here.",
  "data": [
    {"molecular_target": "T1, Protein deacetylase HDAC6 (Homo sapiens) (UniProt Q9UBN7)", "T1 sequence (whole entry)": "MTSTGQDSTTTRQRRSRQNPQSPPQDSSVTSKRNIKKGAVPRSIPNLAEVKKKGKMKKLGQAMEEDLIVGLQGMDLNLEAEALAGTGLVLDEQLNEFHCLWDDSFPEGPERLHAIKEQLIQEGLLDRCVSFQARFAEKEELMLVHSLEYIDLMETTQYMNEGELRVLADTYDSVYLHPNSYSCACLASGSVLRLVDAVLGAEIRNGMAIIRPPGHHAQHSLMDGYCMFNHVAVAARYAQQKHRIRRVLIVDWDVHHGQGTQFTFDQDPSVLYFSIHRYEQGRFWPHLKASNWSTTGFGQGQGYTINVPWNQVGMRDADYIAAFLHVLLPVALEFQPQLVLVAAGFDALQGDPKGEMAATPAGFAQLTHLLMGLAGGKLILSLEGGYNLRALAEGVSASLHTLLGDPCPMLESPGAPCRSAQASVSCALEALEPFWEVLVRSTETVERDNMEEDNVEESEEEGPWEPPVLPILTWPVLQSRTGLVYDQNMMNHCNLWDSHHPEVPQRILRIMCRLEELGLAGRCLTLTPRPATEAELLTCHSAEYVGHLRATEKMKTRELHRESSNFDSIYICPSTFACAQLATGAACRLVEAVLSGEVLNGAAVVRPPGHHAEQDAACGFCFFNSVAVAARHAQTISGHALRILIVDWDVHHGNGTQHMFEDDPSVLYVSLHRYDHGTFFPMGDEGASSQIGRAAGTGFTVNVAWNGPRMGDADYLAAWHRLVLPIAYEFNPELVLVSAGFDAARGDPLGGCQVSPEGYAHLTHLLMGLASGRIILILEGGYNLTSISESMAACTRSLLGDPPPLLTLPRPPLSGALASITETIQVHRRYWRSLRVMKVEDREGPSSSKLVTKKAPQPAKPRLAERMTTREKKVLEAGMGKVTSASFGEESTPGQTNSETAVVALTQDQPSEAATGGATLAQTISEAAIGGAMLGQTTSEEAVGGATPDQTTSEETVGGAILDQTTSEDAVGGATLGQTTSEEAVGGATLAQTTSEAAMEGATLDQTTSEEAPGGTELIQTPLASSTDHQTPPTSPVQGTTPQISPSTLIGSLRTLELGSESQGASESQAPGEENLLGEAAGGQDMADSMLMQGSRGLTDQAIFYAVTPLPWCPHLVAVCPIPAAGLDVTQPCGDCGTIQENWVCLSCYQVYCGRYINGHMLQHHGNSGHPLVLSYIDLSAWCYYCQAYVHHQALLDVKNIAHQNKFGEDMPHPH", "conditions": "MV4-11, dose 100.0 nM, time 24.0 hrs", "values": [
      {"compound": "CN1C(=O)N2Cc3c(c4cc(OCCN5CCOCC5)ccc4n3Cc3ccc(C(=O)NO)cc3)C(C3CCCCC3)(C2)C1=O", "note": "(racemic)", "inhibition": "Active"},
      {"compound": "CN1C(=O)N2Cc3c(c4cc(OCCN5CCOCC5)ccc4n3Cc3ccc(C(=O)NO)cc3)C(c3ccco3)(C2)C1=O", "note": "(racemic)", "inhibition": "Active"},
      {"compound": "CN1C(=O)N2Cc3c(c4cc(O)ccc4n3Cc3ccc(C(=O)NO)cc3)C(c3cccs3)(C2)C1=O", "note": "(racemic)", "inhibition": "Active"}
    ]}
  ]
}
